The text below walks through data of BindingDB's records for PubMed 11408610 (Virginia Commonwealth University, 2001).

Amino acid sequences for entries named in this document (tags omitted).
UniProt P20272, whole entry: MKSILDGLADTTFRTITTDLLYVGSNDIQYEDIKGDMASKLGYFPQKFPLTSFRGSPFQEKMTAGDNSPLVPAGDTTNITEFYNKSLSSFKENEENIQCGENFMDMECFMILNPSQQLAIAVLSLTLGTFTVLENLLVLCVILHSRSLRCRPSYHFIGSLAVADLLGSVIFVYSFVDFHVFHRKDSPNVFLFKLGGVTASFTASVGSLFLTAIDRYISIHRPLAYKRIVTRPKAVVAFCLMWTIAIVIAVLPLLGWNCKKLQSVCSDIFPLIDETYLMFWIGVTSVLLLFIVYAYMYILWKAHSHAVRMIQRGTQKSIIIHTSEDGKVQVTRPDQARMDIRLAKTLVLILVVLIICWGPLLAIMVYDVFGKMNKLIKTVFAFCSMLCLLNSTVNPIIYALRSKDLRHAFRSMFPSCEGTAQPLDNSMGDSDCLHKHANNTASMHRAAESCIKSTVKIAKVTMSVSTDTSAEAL

The target in this experiment is Cannabinoid receptor 1 (Rattus norvegicus, UniProt P20272).

The structures appear in SMILES notation.

`CCCCC/C=C/C/C=C/C/C=C/C/C=C/CCCC(=O)NC(C)CO` (stereo unspecified) [(5Z,8Z,11Z,14Z)-N-(1-Methyl-2-hydroxyethyl)-5,8,11,14-icosatetrenamide] showed a Ki of 137 nM.
